Data published in article PMC3392958, “Assay Format as a Critical Success Factor for Identification of Novel Inhibitor Chemotypes of Tissue-Nonspecific Alkaline Phosphatase from High-Throughput Screening” (Molecules, 2010).

Biological target: T1, IAP (Homo sapiens, UniProt P09923)
T1 construct: made in house; host or cells: COS-1 cells, transient expression; dialyzed serum-free conditioned medium
T1 sequence (P09923 20-503 limits assumed): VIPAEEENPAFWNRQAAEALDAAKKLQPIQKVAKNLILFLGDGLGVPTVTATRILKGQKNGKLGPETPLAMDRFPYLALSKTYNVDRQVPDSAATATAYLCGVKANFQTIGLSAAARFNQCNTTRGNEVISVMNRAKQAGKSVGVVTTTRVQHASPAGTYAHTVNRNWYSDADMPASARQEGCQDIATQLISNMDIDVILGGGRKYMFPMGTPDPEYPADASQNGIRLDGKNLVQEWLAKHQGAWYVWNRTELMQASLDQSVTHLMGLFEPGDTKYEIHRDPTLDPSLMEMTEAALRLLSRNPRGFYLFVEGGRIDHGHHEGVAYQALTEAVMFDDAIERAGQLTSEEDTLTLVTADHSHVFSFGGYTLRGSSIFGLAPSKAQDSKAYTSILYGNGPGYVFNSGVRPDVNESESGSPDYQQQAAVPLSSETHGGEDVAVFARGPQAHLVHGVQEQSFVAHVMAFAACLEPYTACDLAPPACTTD
Experiment: IAP luminescent assay (CDP-star)
Assay type: biochemical

Q: What does the source list for O=C1c2ccccc2C(=O)N1c1nnc(Cc2ccccc2)[nH]1 [MLS-0091978]?
A: IC50 (phtalimide triazole series, read-out: IC50 IAP-Lumi): 8.87 µM; IC50 (read-out: IAP IC50): 8.9 µM

Like-named read-outs stand apart in the source and are kept apart here.
